Patent publication US20240101552A1, “CARBONYL HETEROCYCLIC COMPOUND AND APPLICATION THEREOF” (SHANGHAI PHARMACEUTICALS HOLDING CO., LTD., priority 2020, published 2024)

Sequences of proteins named here, by UniProt entry; tags and fusion partners are left off.
UniProt Q9NS86, whole entry, species assumed: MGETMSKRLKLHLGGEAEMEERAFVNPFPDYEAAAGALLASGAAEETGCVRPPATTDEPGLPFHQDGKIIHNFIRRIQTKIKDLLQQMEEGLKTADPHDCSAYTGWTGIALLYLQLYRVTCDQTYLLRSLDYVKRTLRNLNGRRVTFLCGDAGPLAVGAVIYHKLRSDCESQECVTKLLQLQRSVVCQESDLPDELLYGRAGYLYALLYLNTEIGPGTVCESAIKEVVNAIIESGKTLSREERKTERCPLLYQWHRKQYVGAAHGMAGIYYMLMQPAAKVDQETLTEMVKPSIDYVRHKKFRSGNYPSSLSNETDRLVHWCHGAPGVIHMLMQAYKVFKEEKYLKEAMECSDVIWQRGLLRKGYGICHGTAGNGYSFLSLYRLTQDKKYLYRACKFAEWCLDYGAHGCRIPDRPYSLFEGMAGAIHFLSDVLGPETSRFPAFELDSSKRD

Target: LANCL2 (Homo sapiens (Human), UniProt Q9NS86)
Assay: SPR (BIACORE S200) kinetic determination of LANCL2-small molecule interactions
Type: binding
Method: 1.1 Reagent Materials • Ligand: LANCL2 • Running buffer: 20 mM MES, 150 mM NaCl, 0.05% P20, pH 6.5, 1% DMSO
Injection conditions for small molecule compounds: a flow rate of 30 μL/min, a binding time of 60 s, a dissociation time of 300 s.
Running buffer: 20 mM MES, 150 mM NaCl, 0.05% P20, pH 6.5, 1% DMSO.
Sample chamber temperature: 25° C.; analysis temperature: 25° C.
Kinetic determination of LANCL2-small molecule interactions was performed. The kinetic parameters of small molecules BT-11 and L-1 to 60 (analytes) binding to LANCL2 (ligand) were determined using BIACORE S200. Data were generated in triplicate in a dose-dependent manner (5-8 titration points) and analyzed to determine binding models (Langmuir, conformational shifts, etc.), real-time association and dissociation constants, and equilibrium dissociation constants. […] Data were analyzed with BIACORE S200T200 evaluation software (version 1), so as to determine affinity binding constants (KD) using a 1:1 binding model.
An optical technique for detecting molecular interactions, SPR, was used to measure the binding affinity between LANCL2 and a ligand thereof (compound to be tested). […] The change in total mass on the chip surface, corresponding to a small binding to the protein, was measured. […] The steady-state affinity (Kd) for each interaction could be measured by plotting equilibrium binding levels against compound concentrations.

O=C(c1cccc(-c2nc3ccccc3[nH]2)n1)N1CCN(C(=O)c2cccs2)CC1 [Embodiment L-112, (4-(6-(1H-benzo[d]imidazol-2-yl)picolinoyl)piperazin-1-yl)(thiophen-2-yl)methanone]
Kd (immobilized LANCL2, 1:1 binding model, pH 6.5, 25° C.): 24.8 µM
Rmax (RU) (maximum binding force): 12.7 RU
